Assays:
[1] = molecular target: T1, CXCR3 (Homo sapiens, UniProt P49682); assay: CXCR3 binding assay in presence of human plasma
T1 construct: ChemoCentryx
T1 sequence (P49682 1-368): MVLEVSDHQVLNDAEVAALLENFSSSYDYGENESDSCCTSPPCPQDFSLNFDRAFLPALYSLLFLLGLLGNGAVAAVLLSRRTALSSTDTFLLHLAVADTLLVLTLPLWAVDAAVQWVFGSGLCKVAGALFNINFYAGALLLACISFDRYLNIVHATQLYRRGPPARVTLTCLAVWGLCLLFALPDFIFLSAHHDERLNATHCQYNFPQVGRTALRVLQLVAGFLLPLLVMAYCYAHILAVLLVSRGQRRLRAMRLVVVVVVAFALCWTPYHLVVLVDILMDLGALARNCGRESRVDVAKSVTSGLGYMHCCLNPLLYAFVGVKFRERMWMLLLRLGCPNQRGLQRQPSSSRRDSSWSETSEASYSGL
Protocol: (§1) CXCR3 Binding Assay: CXCR3 binding assays were conducted as previously described (see, e.g., Example 12 in WO 02/083143, incorporated herein by reference in its entirety), in the absence (“binding buffer”) or presence of human plasma. Unless otherwise noted, all reagents used are available from commercial sources (e.g., Sigma-Aldrich, St. Louis, Mo., USA). Test compounds are diluted in DMSO to a concentration that is 40-times the intended final assay concentration; 5 μL are transferred to each well of a 96-well flat-bottomed polypropylene plate (e.g., from Greiner, Inc.). CXCR3-expressing cells obtained from ChemoCentryx were used in the assays to generate the data set forth below. […] The plates are counted on a scintillation counter, such as a Packard TopCount. […] Data were analyzed using commercially available software (e.g., Excel from Microsoft, Prism from GraphPad Software Inc.).

[2] = molecular target: T1, CXCR3; assay: CXCR3 binding assay in binding buffer (125I-labelled chemokine, CXCR3-expressing cells); settings: absence of human plasma
Protocol: as §1

IC50 [1] [nM] | IC50 [2] [nM] | SMILES
25 | 11 | CCS(=O)(=O)CCN(C(=O)Cc1ccc(F)c(C(F)(F)F)c1)[C@H](C)c1nc2ncccc2c(=O)n1-c1ccc(C#N)cc1 [drawing 192]
17 | 2 | CCS(=O)(=O)CCN(C(=O)Cc1ccc(F)c(C(F)(F)F)c1)[C@H](C)c1nc2ccccn2c(=O)c1-c1ccc(C#N)cc1

From US7799795B2, “Aryl nitrile compounds and compositions and their uses in treating inflammatory and related disorders” (Amgen Inc., priority 2005, dated 2010)
